Experimental findings from US11291705B2, “Use of caspase-3 inhibitors and caspase-3 activators in the manufacture of medicament for treating cancer and wound healing” (Technion Research & Development Foundation Limited, priority 2016, dated 2022) are described below.

This experiment concerns the target T1, recombinant human cleaved Caspase-3 (Homo sapiens, UniProt P42574).
T1 construct: Recombinant human cleaved Caspase-3 was incubated with α-Catenin for 2 hours; purchased BD Bioscience
T1 sequence (P42574 29-175 limits assumed): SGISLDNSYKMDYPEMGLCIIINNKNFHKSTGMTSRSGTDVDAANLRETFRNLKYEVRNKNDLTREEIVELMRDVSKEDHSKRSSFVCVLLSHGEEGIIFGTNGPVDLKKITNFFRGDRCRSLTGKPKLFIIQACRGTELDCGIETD
T1 sequence (P42574 176-277 limits assumed): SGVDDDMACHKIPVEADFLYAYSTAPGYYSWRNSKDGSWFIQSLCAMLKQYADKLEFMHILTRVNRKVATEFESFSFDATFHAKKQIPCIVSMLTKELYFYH
As to the kind of experiment: In vitro cleavage assay of recombinant human α-Catenin by caspase-3. Conditions: Caspase-3 incubated with α-Catenin for 2 hours, Ac-DEVD-CHO 1 μg; Coomassie. The format is biochemical. How it is done: In Vitro Cleavage Assay—Recombinant human α-Catenin protein (2.5 μg; Abcam) and recombinant active-caspase 3 (100 ng; BD Bioscience) were incubated at 37° C. for 2 h in cleavage assay buffer (20 mM PIPES, 100 mM NaCl, 10 mM DTT, 1 mM EDTA, 0.1% (w/v) CHAPS, 10% sucrose, pH 7.2) containing either DMSO or Ac-DEVD-CHO (SEQ ID NO: 75. 1 μg; BD Bioscience) as indicated. Reactions were stopped by addition of Laemmli sample buffer, and subjected to SDS/PAGE.
In order to examine if Caspase-3 cleaves α-Catenin, the present inventors conducted an in vitro cleavage assay. Recombinant human cleaved Caspase-3 was incubated with α-Catenin for 2 hours and products were separated using SDS-electrophoresis and Coommasie staining.

For Ac-DEVD-CHO, the α-Catenin cleavage products entry was “no cleavage products”.
